Reference: US6936585B2, “Corticotropin releasing factor 2 receptor agonists” (priority 2002, dated 2005)

Legend:
CRF2R = target: T1, CRF2R (Homo sapiens, UniProt Q13324); experiment: CRF2R agonist activation (EC50 / Emax), called comparative CRF binding; format: cell-based; details: for Emax: read-out: CRF2R Emax
T1 sequence (Q13324 1-411): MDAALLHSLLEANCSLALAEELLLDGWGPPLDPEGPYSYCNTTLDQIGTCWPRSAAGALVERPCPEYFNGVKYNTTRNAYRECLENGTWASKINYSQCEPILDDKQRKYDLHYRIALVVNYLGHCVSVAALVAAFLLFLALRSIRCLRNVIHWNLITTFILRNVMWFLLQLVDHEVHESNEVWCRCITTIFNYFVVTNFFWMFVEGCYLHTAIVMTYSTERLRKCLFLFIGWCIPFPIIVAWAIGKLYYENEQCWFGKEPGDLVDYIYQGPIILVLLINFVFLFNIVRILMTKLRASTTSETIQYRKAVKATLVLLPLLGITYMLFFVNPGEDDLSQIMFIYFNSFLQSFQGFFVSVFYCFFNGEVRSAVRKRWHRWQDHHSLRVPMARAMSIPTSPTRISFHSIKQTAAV
Text: (§1) The pharmacological activity and selectivity of the peptides of present invention can be determined using published test procedures. See, e.g, U.S. patent application Ser. No. 09/799,978 (now issued U.S. Pat. No. 6,670,140). Because CRF2R and CRF1R are homologous proteins, it is expected that a certain proportion of agonists for CRF2R will also function as agonists of CRF1R. As discussed above, activation of CRF1R induces activation of the HPA axis since increased corticosteroid production leads to skeletal muscle atrophy. In most cases in which an increase in muscle mass or function is desired, it is not desirable to activate the HPA axis.
(§2) Cell-based assays include the steps of contacting cells which express CRF1R or CRF2R with a peptide of the present invention or control and measuring activation of the CRFR by measuring the expression or activity of components of the CRFR signal transduction pathways.
(§3) For example, after contact with a peptide of the present invention, lysates of the cells can be prepared and assayed for induction of cAMP. cAMP is induced in response to Gαs activation. Because Gαs is activated by receptors other than CRFR and because a test peptide may be exerting its effect through CRFRs or by another mechanism, two control comparisons are relevant for determining whether the peptide increases levels of cAMP via activation of a CRFR. One control compares the cAMP level of cells contacted with the peptide and the cAMP level of cells contacted with a control compound (i.e., the vehicle in which the peptide is dissolved).
(§4) In one example, cAMP induction is measured with the use of DNA constructs containing the cAMP responsive element linked to any of a variety of reporter genes can be introduced into cells expressing CRFRs. Such reporter genes include, but are not limited to, chloramphenicol acetyltransferase (CAT), luciferase, glucuronide synthetase, growth hormone, fluorescent proteins (e.g., Green Fluorescent Protein), or alkaline phosphatase. Following exposure of the cells to the peptide, the level of reporter gene expression can be quantitated to determine the peptide's ability to increase cAMP levels and thus determine the peptide's ability to activate the CRFR.
(§5) In addition to using cells expressing full length CRFRs, cells can be engineered which express CRFRs containing the ligand binding domain of the receptor coupled to, or physically modified to contain, reporter elements or to interact with signaling proteins. For example, a wild type CRFR or CRFR fragment can be fused to a G-protein resulting in activation of the fused G-protein upon agonist binding to the CRFR portion of the fusion protein. […] In addition, alternative pathways for induction of the CRE reporter could be eliminated to reduce basal levels.

CRF1R = target: T2, CRF1R (Homo sapiens, UniProt P34998); experiment: CRF1R agonist activation (EC50 / Emax), called comparative CRF binding; format: cell-based; details: for Emax: read-out: CRF1R Emax
T2 sequence (P34998 24-415): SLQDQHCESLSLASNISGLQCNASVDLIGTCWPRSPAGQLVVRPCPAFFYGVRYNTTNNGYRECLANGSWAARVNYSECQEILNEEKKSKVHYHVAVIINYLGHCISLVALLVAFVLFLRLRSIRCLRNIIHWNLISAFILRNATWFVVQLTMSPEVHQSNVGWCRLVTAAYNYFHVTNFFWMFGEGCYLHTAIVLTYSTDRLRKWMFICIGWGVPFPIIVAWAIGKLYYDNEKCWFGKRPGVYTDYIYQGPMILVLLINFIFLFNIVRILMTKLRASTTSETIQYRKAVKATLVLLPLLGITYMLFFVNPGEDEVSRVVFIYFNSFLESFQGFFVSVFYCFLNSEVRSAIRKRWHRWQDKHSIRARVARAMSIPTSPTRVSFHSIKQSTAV
Text: as §1, §2, §3, §4, §5

Row | Compound | Emax (CRF2R) [%] | Emax (CRF1R) [%] | EC50 (CRF2R) [nM] | EC50 (CRF1R; CRF1R EC50) [nM]
1 | CC[C@H](C)[C@H](NC(=O)[C@@H](NC(=O)[C@H](CC(=O)O)NC(=O)[C@H](CC(C)C)NC(=O)[C@H](CC(C)C)NC(=O)[C@H](CC(C)C)NC(=O)[C@H](CCCNC(=N)N)NC(=O)[C@H](CC(N)=O)NC(=O)[C@H](CC(N)=O)NC(=O)[C@H](C)NC(=O)[C@H](C)NC(=O)[C@H](CCC(N)=O)NC(=O)[C@H](CCC(N)=O)NC(=O)[C@H](CCCCN)NC(=O)[C@H](CCC(=O)O)NC(=O)[C@H](CCCCN)NC(=O)[C@H](CCC(=O)O)NC(=O)[C@H](CCC(N)=O)NC(=O)[C@H](CCCCN)NC(=O)[C@H](CCC(=O)O)NC(=O)[C@@H](NC(=O)[C@H](CCC(=O)O)NC(=O)[C@@H](NC(=O)[C@H](CCSC)NC(=O)[C@H](CCCCN)NC(=O)[C@H](CCCNC(=N)N)NC(=O)[C@H](CC(C)C)NC(=O)[C@H](CC(C)C)NC(=O)[C@H](CCC(=O)O)NC(=O)[C@H](Cc1ccccc1)NC(=O)[C@@H]1CCCN1C(=O)[C@H](CC(C)C)NC(=O)[C@H](CC(=O)O)NC(=O)[C@@H](NC(=O)[C@H](CO)NC(=O)[C@@H](NC(=O)[C@@H]1CCCN1C(=O)[C@@H]1CCCN1C(=O)CNC(=O)[C@@H]1CCC(=O)N1)[C@@H](C)CC)[C@@H](C)CC)[C@@H](C)CC)[C@@H](C)CC)[C@@H](C)O)C(N)=O [compound 67] | 50 | 96 |  | 
2 | CC[C@H](C)[C@H](NC(=O)[C@@H](NC(=O)[C@H](CC(=O)O)NC(=O)[C@H](CC(C)C)NC(=O)[C@H](CC(C)C)NC(=O)[C@H](CC(C)C)NC(=O)[C@H](CCCNC(=N)N)NC(=O)[C@H](CC(N)=O)NC(=O)[C@H](CC(N)=O)NC(=O)[C@H](C)NC(=O)[C@H](C)NC(=O)[C@H](CCC(N)=O)NC(=O)[C@H](CCC(N)=O)NC(=O)[C@H](CCCCN)NC(=O)[C@H](CCC(=O)O)NC(=O)[C@H](CCCCN)NC(=O)[C@H](CCC(=O)O)NC(=O)[C@H](CCC(N)=O)NC(=O)[C@H](CCCCN)NC(=O)[C@H](CCC(=O)O)NC(=O)[C@@H](NC(=O)[C@H](CCC(=O)O)NC(=O)[C@@H](NC(=O)[C@H](CCSC)NC(=O)[C@H](CCCCN)NC(=O)[C@H](CCCNC(=N)N)NC(=O)[C@H](CC(C)C)NC(=O)[C@H](CC(C)C)NC(=O)[C@H](C)NC(=O)[C@H](C)NC(=O)[C@@H]1CCCN1C(=O)[C@H](CC(C)C)NC(=O)[C@H](CC(=O)O)NC(=O)[C@@H](NC(=O)[C@H](CO)NC(=O)[C@@H](NC(=O)[C@@H]1CCCN1C(=O)[C@@H]1CCCN1C(=O)CNC(=O)[C@@H]1CCC(=O)N1)[C@@H](C)CC)[C@@H](C)CC)[C@@H](C)CC)[C@@H](C)CC)[C@@H](C)O)C(N)=O [compound 303] | 100 | 100 |  | 
3 | CC[C@H](C)[C@H](NC(=O)[C@@H](NC(=O)[C@H](CC(=O)O)NC(=O)[C@H](CC(C)C)NC(=O)[C@H](CC(C)C)NC(=O)[C@H](CC(C)C)NC(=O)[C@H](CCCNC(=N)N)NC(=O)[C@H](CC(N)=O)NC(=O)[C@H](CC(N)=O)NC(=O)[C@H](C)NC(=O)[C@H](C)NC(=O)[C@H](CCC(N)=O)NC(=O)[C@H](CCC(N)=O)NC(=O)[C@H](CCCCN)NC(=O)[C@H](CCC(=O)O)NC(=O)[C@H](CCCCN)NC(=O)[C@H](CCC(=O)O)NC(=O)[C@H](CCC(N)=O)NC(=O)[C@H](CCCCN)NC(=O)[C@H](CCC(=O)O)NC(=O)[C@@H](NC(=O)[C@H](CCC(=O)O)NC(=O)[C@@H](NC(=O)[C@H](CCSC)NC(=O)[C@H](CCCCN)NC(=O)[C@H](CCCNC(=N)N)NC(=O)[C@H](CC(C)C)NC(=O)[C@H](CC(C)C)NC(=O)[C@H](Cc1c[nH]c2ccccc12)NC(=O)[C@H](Cc1c[nH]cn1)NC(=O)[C@@H]1CCCN1C(=O)[C@H](CC(C)C)NC(=O)[C@H](CC(=O)O)NC(=O)[C@@H](NC(=O)[C@H](CO)NC(=O)[C@@H](NC(=O)[C@@H]1CCCN1C(=O)[C@@H]1CCCN1C(=O)CNC(=O)[C@@H]1CCC(=O)N1)[C@@H](C)CC)[C@@H](C)CC)[C@@H](C)CC)[C@@H](C)CC)[C@@H](C)O)C(N)=O [compound 186] | 100 | 100 |  | 
4 | CC[C@H](C)[C@H](NC(=O)[C@@H](NC(=O)[C@H](CC(=O)O)NC(=O)[C@H](CC(C)C)NC(=O)[C@H](CC(C)C)NC(=O)[C@H](CC(C)C)NC(=O)[C@H](C)NC(=O)[C@H](CC(N)=O)NC(=O)[C@H](CC(N)=O)NC(=O)[C@H](C)NC(=O)[C@H](C)NC(=O)[C@H](CCC(N)=O)NC(=O)[C@H](CCC(N)=O)NC(=O)[C@H](CCCCN)NC(=O)[C@H](CCC(=O)O)NC(=O)[C@H](CCCCN)NC(=O)[C@H](CCC(=O)O)NC(=O)[C@H](CCC(N)=O)NC(=O)[C@H](CCCCN)NC(=O)[C@H](CCC(=O)O)NC(=O)[C@@H](NC(=O)[C@H](CCC(=O)O)NC(=O)[C@@H](NC(=O)[C@H](CCSC)NC(=O)[C@H](CCCCN)NC(=O)[C@H](CCCNC(=N)N)NC(=O)[C@H](CC(C)C)NC(=O)[C@H](CC(C)C)NC(=O)[C@H](Cc1ccc(O)cc1)NC(=O)[C@@H](NC(=O)[C@@H]1CCCN1C(=O)[C@H](CC(C)C)NC(=O)[C@H](CC(=O)O)NC(=O)[C@@H](NC(=O)[C@H](CO)NC(=O)[C@@H](NC(=O)[C@@H]1CCCN1C(=O)[C@@H]1CCCN1C(=O)CNC(=O)[C@@H]1CCC(=O)N1)[C@@H](C)CC)[C@@H](C)CC)[C@@H](C)CC)[C@@H](C)CC)[C@@H](C)CC)[C@@H](C)O)C(N)=O [compound 236] | 97 | 15 |  | 
5 | CC[C@H](C)[C@H](NC(=O)[C@@H](NC(=O)[C@H](CC(=O)O)NC(=O)[C@H](CC(C)C)NC(=O)[C@H](CC(C)C)NC(=O)[C@H](CC(C)C)NC(=O)[C@H](CCCNC(=N)N)NC(=O)[C@H](CC(N)=O)NC(=O)[C@H](CC(N)=O)NC(=O)[C@H](C)NC(=O)[C@H](C)NC(=O)[C@H](CCC(N)=O)NC(=O)[C@H](CCC(N)=O)NC(=O)[C@H](CCCCN)NC(=O)[C@H](CCC(=O)O)NC(=O)[C@H](CCCCN)NC(=O)[C@H](CCC(=O)O)NC(=O)[C@H](CCC(N)=O)NC(=O)[C@H](CCCCN)NC(=O)[C@H](CCC(=O)O)NC(=O)[C@@H](NC(=O)[C@H](CCC(=O)O)NC(=O)[C@@H](NC(=O)[C@H](CCSC)NC(=O)[C@H](CCCCN)NC(=O)[C@H](CCCNC(=N)N)NC(=O)[C@H](CC(C)C)NC(=O)[C@H](CC(C)C)NC(=O)[C@H](Cc1c[nH]cn1)NC(=O)[C@H](Cc1c[nH]cn1)NC(=O)[C@@H]1CCCN1C(=O)[C@H](CC(C)C)NC(=O)[C@H](CC(=O)O)NC(=O)[C@@H](NC(=O)[C@H](CO)NC(=O)[C@@H](NC(=O)[C@@H]1CCCN1C(=O)[C@@H]1CCCN1C(=O)CNC(=O)[C@@H]1CCC(=O)N1)[C@@H](C)CC)[C@@H](C)CC)[C@@H](C)CC)[C@@H](C)CC)[C@@H](C)O)C(N)=O [compound 205] | 93 | 88 | 25 | 126
